Laboratory results from patent publication US12465607B2, “ALK inhibitors for treatment of ALK-negative cancer and plasma cell-mediated diseases” (UNIVERSITETET I OSLO, priority 2019, dated 2025).

Amino acid sequences for entries named in this document (tags omitted). Residues count along the entry.
UniProt P29376, 17-864: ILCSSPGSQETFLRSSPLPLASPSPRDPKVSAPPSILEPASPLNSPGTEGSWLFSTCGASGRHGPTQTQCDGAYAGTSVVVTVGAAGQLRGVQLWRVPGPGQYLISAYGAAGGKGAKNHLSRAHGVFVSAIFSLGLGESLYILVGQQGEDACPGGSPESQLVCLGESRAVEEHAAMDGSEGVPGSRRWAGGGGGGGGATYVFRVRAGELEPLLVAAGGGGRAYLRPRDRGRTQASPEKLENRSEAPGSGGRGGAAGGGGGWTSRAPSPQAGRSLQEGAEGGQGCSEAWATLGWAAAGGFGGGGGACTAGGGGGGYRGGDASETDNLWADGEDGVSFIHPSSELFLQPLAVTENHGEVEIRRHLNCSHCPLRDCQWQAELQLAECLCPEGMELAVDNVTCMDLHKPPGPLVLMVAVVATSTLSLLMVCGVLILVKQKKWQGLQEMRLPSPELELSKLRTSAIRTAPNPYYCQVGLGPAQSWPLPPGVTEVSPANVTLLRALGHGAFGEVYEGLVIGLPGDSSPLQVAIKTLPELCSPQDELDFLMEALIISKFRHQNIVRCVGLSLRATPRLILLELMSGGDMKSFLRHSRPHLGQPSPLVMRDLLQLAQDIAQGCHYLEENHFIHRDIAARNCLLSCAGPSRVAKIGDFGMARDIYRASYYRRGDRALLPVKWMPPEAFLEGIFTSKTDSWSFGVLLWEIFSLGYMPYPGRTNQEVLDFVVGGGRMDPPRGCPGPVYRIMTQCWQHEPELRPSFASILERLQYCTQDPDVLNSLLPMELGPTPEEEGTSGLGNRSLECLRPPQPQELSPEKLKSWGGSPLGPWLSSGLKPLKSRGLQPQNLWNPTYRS

Target: T1, LTK (Homo sapiens, UniProt P29376)
T1 construct: expressed in transfected cells; host or cells: HeLa cells
Assay: LTK inhibition: immunoblot of phosphorylated LTK in cells expressing LTK
Format: cell-based
Conditions: FIG. 5A: HeLa cells expressing flag-tagged LTK, 1 μM, 30 minutes
Method: Cells were washed twice with PBS and collected in lysis buffer (50 mM Tris-HCl, pH7.4; 1 mM EDTA, 100 mM NaCl, 0.1% SDS and 1% NP-40) supplemented with proteinase and phosphatase inhibitor (Pierce Protease and Phosphatase Inhibitor Mini Tablets, EDTA-free). Lysates were incubated on ice for 10 minutes followed by clearing centrifugation at 20,000×g at 4° C. for 10 min. Supernatants were transferred into fresh tubes and reducing loading buffer was added. Lysates were subjected to SDS-PAGE and transferred onto a nitrocellulose membrane using semi-dry transfer. The membrane was blocked (in ROTI buffer (Roth) or 5% milk in PBS with 0.1% tween) and probed with the appropriate primary antibodies. Subsequently membranes were incubated with horseradish peroxidase-conjugated secondary antibody. Immunoblots were developed using a chemiluminescence reagent (ECL clarity, BioRad) and imaged using ChemiDoc (BioRad).

## C[C@H]1Oc2cc(cnc2N)-c2c(nn(C)c2C#N)CN(C)C(=O)c2ccc(F)cc21 [lorlatinib]
  inhibition of LTK: not to have activity in inhibition of LTK
